For one molecule, Ki results are on record in paper PMC6917698, “One-Pot Radiosynthesis and Biological Evaluation of a Caspase-3 Selective 5-[^123,125I]iodo-1,2,3-triazole derived Isatin SPECT Tracer” (Scientific Reports, 2019).

In the assay the target is T1, Recombinant human caspase-3 (Homo sapiens, UniProt P42574).
T1 sequence (P42574 29-175 limits assumed): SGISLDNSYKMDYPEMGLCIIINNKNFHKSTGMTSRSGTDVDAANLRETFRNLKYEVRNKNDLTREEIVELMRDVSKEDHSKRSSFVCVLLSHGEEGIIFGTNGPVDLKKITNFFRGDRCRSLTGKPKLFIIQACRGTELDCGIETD
T1 sequence (P42574 176-277 limits assumed): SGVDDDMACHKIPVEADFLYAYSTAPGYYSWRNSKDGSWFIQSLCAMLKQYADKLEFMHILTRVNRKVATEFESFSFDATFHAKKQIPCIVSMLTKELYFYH
Put plainly: Caspase enzyme inhibition assay (fluorogenic Ac-DEVD-AMC), caspase-3.

For `CC(=O)N[C@@H](CC(=O)O)C(=O)N[C@@H](CCC(=O)O)C(=O)N[C@H](C(=O)N[C@H](C=O)CC(=O)O)C(C)C` [Ac-DEVD-CHO, reference compound], the Ki was determined as 0.17 nM.

For orientation: Ki means the equilibrium dissociation constant of an inhibitor or competing ligand from its target.
